Experimental findings from US20240293333A1, “TOPICAL DELIVERY OF LIPOPROTEIN-MIMETIC NANOPARTICLES” (published 2024) are described below.

This test has as its system mouse skin. Briefly: Nitrogen mustard skin injury, skin thickness.

Turning to `C=C1/C(=C\C=C2/CCC[C@]3(C)[C@@H]([C@H](C)CCCC(C)(C)O)CC[C@@H]23)C[C@@H](O)C[C@@H]1O`, the “Percent Increase in Skin Thickness (Day 5)” value by setting is: (set 100 nM HDL-NP / 0.075 mg calcitriol per mouse per day, topical Days 0-3, relative to Day 0 (PBS 398%)) 345%; (set 150 nM HDL-NP / 0.1 mg calcitriol per mouse per day, topical Days 0-3, relative to Day 0 (PBS 353%)) 301%; (set 250 nM HDL-NP / 0.19 mg calcitriol per mouse per day, topical Days 0-3, relative to Day 0 (PBS 406%)) 310%; (set 750 nM HDL-NP / 0.56 mg calcitriol per mouse per day, topical Days 0-3, relative to Day 0 (PBS 402%)) 288%.
